Biological target: MITS9220_PhnD1
Settings: read-out: Dissociation constant (KD)

## phosphite [Pt]
  Kd: 670 ± 100 nM
